Laboratory results published in US20240000957A1 (published 2024).

Chains of the proteins cited; added tags and fusions are not shown. Residues count along the entry.
UniProt P29317, 24-537: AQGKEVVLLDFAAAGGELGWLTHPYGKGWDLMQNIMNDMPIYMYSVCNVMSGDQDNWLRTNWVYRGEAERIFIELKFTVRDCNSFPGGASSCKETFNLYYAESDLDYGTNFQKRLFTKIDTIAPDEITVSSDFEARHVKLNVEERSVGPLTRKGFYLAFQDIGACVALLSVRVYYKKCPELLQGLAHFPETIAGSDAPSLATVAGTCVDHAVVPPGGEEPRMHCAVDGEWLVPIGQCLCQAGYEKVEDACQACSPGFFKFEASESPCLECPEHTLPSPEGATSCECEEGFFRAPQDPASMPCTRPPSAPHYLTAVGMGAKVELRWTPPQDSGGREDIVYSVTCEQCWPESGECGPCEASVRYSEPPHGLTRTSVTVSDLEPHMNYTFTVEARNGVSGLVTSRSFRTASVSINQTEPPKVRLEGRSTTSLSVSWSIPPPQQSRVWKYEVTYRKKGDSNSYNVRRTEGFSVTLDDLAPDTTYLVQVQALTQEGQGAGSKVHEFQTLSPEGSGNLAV
UniProt Q03145, 26-538: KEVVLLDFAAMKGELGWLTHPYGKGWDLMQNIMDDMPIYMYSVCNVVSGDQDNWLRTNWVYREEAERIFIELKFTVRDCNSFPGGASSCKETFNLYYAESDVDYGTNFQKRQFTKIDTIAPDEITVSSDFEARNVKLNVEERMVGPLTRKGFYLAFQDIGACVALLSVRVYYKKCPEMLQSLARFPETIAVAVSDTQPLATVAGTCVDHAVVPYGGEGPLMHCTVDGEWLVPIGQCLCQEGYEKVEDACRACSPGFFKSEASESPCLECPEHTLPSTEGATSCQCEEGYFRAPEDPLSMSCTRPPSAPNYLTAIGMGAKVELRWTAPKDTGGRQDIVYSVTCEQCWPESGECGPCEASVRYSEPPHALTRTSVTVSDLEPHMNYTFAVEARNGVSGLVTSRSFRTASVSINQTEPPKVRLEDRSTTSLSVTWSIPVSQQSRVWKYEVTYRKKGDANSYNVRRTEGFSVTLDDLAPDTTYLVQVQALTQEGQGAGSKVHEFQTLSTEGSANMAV

B1: BCY6026 (peptide)
peptide: ACPLVNPLCLHPGWSCRGQ
modifications: three Cys residues cyclised on the TATA scaffold (1,1',1''-(1,3,5-triazinane-1,3,5-triyl)triprop-2-en-1-one)
notes: Bicyclic peptide on a TATA scaffold, no toxin; Made on Rink amide resin; also called Compound 87; Bicycle Compound Number 87
B2: BCY6059 (peptide)
peptide: CPLVNPLCLHPGWTCLHG
modifications: BCY6019 (N-terminal Ac; C-terminal -Sar6-(D-K); TATA scaffold on the 3 Cys) acetylated with acetyl acetate
notes: made from BCY6019

Molecular target: T1, Human EphA2 (Ecto), C-terminal polyHis (Human, UniProt P29317 24-537)
T1 construct: extracellular domain; R&D systems 3035-A2 or in-house
Test: FP competition vs Reference Compound C

Binder	Ki
ACGFMGLEPCELYCA (TATA scaffold on the 3 Cys) [Compound 48]	0.128 µM
ACPLVNPLCLHPGWTCLHG (TATA scaffold on the 3 Cys) [Compound 73]	0.00198 µM
ACQPSNHCAFMNYCA (TATA scaffold on the 3 Cys) [Compound 30]	0.293 µM
ACPMVNPLCLHPGWKCA (TATA scaffold on the 3 Cys) [Compound 95]	0.0119 µM
ACPMVNPLCLTPGWICA (TATA scaffold on the 3 Cys) [Compound 96]	0.0161 µM
GQVCIVDARCAYMNVCA (TATA scaffold on the 3 Cys) [Compound 24]	0.169 µM
KHSCPLVNPLCLHPGWTCA (TATA scaffold on the 3 Cys) [Compound 72]	0.0119 µM
ACRVYGPYCAYPDTICA (TATA scaffold on the 3 Cys) [Compound 37]	0.294 µM

Molecular target: T2, Mouse EphA2 (Ecto) (Mouse, UniProt Q03145 26-538)
T2 construct: extracellular domain; Fluorescence polarisation assays; not shown: Fc fusion (R&D Systems 639-A2) or C-terminal polyHis (Sino Biological 50586-M08H)
Test: FP competition vs Reference Compound C

Binder	Ki
ACPLVNPLCLHPGWTCLHG (TATA scaffold on the 3 Cys) [Compound 73]	0.0727 µM
ACPLVNPLCLHPGWTCLHG (N-terminal (β-Ala)-Sar10; TATA scaffold on the 3 Cys) [Compound 75]	0.018 µM

Molecular target: T3, Human EphA2 (Human, UniProt P29317 24-537, limits assumed, biotinylated, 0.95 mol biotin/monomer)
T3 construct: also called Eph receptor tyrosine kinase A2
Test: SPR, biotinylated EphA2 on streptavidin chip

Binder	Kd
B1	0.00102 µM

Molecular target: T1, Human EphA2 (Ecto), C-terminal polyHis
Test: FP competition vs Reference Compound C (Study 2)

Binder	Ki
B2	0.0432 µM
ACPLVNPLCLHPGWSCRGQ (TATA scaffold on the 3 Cys, also called Compound 87)	0.0044 µM
CPLVNPLCLHPGWSCRGQ (N-terminal Ac; C-terminal -Sar6-(D-K); TATA scaffold on the 3 Cys, also called Compound 91) [BCY6042]	0.0067 µM
CPLVNPLCLHPGWTCLHG (N-terminal Ac; C-terminal -Sar6-(D-K); TATA scaffold on the 3 Cys, also called Compound 77) [BCY6019]	0.0064 µM

Molecular target: T2, Mouse EphA2 (Ecto)
Test: FP competition vs Reference Compound C (Study 2)

Binder	Ki
CPLVNPLCLHPGWTCLHG (N-terminal Ac; C-terminal -Sar6-(D-K); TATA scaffold on the 3 Cys, also called Compound 77) [BCY6019]	0.016 µM
